Laboratory results published in PubChem BioAssay AID2662 (National Center for Advancing Translational Sciences (NCATS), 2010).
This is a selection; strong and weak results do not stand in their true shares. Active and inactive are the calls of the source. Calls follow the shape of the dose curve; as a rule, active = well fitted inhibition curve with a large enough effect in the polarisation, with a control signal flat (not every such curve was filed as active); inconclusive = small, poorly fitted or top-dose-only effect, or effect the other way, or a change in a side signal; inactive = no such curve, though single readings can be large or run the other way; the % refers to the polarisation.

Sequences of proteins named here, by UniProt entry; tags and fusion partners are left off.
UniProt Q03164, whole entry: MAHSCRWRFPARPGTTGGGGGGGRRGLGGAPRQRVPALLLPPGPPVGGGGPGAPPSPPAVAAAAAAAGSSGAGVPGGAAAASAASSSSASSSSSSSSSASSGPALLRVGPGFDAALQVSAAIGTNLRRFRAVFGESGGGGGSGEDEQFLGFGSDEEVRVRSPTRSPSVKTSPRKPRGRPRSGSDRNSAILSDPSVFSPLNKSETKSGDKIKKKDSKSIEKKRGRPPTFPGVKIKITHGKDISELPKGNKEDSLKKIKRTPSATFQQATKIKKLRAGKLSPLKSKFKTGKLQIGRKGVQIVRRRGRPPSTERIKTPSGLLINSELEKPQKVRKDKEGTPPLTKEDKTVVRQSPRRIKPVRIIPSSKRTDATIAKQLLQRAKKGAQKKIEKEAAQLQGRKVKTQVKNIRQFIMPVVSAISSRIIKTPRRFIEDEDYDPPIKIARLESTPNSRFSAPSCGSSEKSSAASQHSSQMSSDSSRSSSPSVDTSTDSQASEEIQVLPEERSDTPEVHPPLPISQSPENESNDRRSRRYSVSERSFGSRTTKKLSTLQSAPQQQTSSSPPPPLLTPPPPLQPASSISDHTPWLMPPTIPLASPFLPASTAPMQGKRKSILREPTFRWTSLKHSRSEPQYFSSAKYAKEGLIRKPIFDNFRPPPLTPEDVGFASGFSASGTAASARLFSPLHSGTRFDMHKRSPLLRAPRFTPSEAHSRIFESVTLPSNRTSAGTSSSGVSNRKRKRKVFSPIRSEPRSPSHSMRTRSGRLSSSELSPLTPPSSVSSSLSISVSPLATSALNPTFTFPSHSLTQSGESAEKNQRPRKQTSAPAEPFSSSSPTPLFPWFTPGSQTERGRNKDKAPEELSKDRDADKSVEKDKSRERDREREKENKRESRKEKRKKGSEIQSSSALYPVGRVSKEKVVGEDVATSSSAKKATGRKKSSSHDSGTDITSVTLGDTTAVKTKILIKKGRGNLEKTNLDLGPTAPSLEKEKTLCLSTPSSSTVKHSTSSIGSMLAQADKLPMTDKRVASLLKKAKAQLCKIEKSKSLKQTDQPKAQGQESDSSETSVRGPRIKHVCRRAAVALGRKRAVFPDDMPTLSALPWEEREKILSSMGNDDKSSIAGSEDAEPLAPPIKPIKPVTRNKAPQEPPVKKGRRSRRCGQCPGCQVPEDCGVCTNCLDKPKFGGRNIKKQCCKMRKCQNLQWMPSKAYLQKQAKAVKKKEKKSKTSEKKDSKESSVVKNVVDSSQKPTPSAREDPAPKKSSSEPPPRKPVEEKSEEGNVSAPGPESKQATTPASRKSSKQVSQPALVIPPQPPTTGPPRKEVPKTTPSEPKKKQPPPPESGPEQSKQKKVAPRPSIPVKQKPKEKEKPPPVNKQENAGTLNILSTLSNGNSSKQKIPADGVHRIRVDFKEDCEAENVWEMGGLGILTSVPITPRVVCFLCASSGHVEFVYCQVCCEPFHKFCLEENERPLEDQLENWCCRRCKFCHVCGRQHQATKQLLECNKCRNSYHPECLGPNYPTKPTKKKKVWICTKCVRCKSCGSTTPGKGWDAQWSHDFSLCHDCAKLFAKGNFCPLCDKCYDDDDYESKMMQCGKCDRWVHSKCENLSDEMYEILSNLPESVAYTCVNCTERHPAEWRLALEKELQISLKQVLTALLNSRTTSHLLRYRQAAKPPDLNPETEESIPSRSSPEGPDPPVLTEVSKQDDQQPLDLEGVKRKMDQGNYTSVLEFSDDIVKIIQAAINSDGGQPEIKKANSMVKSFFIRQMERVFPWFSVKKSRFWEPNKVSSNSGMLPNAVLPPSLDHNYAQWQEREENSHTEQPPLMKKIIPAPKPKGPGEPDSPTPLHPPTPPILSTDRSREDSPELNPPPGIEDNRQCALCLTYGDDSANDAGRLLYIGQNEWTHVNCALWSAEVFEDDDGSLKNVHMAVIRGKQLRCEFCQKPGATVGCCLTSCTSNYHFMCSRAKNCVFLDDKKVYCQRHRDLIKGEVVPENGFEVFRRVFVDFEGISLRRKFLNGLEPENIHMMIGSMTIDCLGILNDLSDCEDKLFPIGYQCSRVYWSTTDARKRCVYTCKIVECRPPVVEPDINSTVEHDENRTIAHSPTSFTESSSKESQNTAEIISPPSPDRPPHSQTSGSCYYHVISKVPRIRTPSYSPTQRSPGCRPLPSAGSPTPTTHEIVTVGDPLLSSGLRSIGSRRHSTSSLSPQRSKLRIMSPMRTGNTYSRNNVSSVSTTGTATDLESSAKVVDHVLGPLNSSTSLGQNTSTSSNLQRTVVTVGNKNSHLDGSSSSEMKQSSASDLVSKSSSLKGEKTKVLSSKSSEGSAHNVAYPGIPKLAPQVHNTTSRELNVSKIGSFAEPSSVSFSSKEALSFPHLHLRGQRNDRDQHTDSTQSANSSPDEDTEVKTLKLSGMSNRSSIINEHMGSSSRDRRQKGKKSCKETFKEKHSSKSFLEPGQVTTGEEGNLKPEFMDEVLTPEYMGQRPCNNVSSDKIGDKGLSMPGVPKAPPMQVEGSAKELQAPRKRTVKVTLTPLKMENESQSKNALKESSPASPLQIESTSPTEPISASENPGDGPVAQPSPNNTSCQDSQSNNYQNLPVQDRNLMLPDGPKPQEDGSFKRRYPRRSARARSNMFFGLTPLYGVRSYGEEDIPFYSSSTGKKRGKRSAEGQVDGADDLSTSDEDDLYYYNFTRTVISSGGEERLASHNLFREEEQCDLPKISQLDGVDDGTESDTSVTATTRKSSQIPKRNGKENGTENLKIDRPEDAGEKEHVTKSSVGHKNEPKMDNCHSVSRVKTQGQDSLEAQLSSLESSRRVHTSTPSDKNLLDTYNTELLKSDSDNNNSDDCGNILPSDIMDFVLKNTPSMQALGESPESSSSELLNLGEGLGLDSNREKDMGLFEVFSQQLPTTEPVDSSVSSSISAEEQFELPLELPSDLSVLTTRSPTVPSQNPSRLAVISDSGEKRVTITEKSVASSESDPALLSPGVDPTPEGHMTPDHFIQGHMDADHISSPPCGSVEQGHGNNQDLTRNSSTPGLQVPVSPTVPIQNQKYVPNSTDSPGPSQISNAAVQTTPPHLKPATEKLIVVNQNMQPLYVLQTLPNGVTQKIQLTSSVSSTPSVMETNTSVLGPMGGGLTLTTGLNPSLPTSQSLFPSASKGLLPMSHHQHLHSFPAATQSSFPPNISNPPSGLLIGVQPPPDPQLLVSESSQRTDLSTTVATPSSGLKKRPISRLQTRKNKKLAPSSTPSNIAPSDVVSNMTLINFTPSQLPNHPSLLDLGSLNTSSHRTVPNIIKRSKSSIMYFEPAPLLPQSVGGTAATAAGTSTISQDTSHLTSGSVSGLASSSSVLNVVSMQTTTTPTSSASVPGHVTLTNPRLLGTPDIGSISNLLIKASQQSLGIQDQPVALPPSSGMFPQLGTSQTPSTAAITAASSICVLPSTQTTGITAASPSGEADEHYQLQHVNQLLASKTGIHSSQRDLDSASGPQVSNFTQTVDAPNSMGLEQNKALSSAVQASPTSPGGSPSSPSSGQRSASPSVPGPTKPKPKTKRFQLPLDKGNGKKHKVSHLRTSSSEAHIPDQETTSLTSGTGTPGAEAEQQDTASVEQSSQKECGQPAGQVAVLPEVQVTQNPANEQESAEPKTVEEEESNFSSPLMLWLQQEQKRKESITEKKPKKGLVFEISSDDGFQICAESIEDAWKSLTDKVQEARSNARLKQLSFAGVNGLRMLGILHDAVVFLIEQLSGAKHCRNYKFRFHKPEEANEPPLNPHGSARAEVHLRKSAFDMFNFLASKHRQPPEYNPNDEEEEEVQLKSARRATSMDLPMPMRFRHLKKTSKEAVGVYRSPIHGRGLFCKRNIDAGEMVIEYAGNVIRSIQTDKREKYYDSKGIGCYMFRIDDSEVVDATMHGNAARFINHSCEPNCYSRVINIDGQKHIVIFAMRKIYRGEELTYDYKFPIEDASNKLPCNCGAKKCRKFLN

Target: Histone-lysine N-methyltransferase 2A (Homo sapiens) (UniProt Q03164)
Assay: qHTS Fluorescence Polarization Assay for Inhibitors of MLL CXXC domain - DNA interaction
Settings: MLL-CXXC / FITC-HOXA9 DNA fluorescence polarization; at 115 µM (top of the series) unless noted

SMILES	activity change, negative = inhibition
C/C1=C2N=C(/C=C3N=C(/C(C)=C4\[N-][C@@](C)([C@H]5N=C1[C@@](C)(CCC(=O)NC[C@H](C)OP(=O)([O-])O[C@@H]1[C@H](O)[C@H](n6cnc7cc(C)c(C)cc76)O[C@@H]1CO)[C@@H]5CC(N)=O)[C@](C)(CC(N)=O)[C@H]4CCC(N)=O)[C@@](C)(CC(N)=O)[C@@H]\3CCC(N)=O)C(C)(C)[C@@H]/2CCC(N)=O.[C-]#N.[Co+3]	inactive: -18.1% [at 51.4 µM]
CC(C)OP(=O)(F)OC(C)C	inactive: -0.581%
CCOC(=O)c1ccc(NP(C)(=O)Oc2ccc(Cl)cc2)cc1 (stereo not given)	inactive: -1.6%
CP(=O)(OC12CC3CC(CC(C3)C1)C2)OC12CC3CC(CC(C3)C1)C2	inactive: -2.45%
CC(C)(C)c1ccc(OP(C)(=O)O)cc1	inactive: -9.61%
COc1ccccc1OP(C)(=O)Nc1ccccc1Br (stereo not given)	inactive: -2.27%
CP(=O)(Nc1ccc(Cl)cc1)Oc1ccc(F)cc1 (stereo not given)	inactive: 1.69%
COc1ccccc1OP(C)(=O)Nc1c(C)n(C)n(-c2ccccc2)c1=O (stereo not given)	inactive: -10.7%
O=C(OCCCN1CCCC1)C(O)(c1ccccc1)C1CCCCC1 (stereo not given)	inactive: -1.73%
OCCSCCO	inactive: -4.56%
CP(=O)(Oc1ccccc1)N1CCOC1=O (stereo not given)	inactive: 1.12%
CCc1ccc(OP(C)(=O)Nc2cccnc2)cc1 (stereo not given)	inactive: 0.0788%
CCN(CC)CC(O)COC(=O)C(O)(c1ccccc1)C1CCCCC1 (stereo not given)	inactive: -1.53%
COc1ccc(OP(C)(=O)Nc2ccc(Br)cc2)cc1 (stereo not given)	inactive: -5.69%
CP(=O)(Nc1ccccn1)Oc1ccccc1 (stereo not given)	inactive: 7.29%
COc1ccccc1OP(C)(=O)Nc1ccc(C)cc1C (stereo not given)	inactive: -3.17%
CCc1ccc(OP(C)(=O)O)cc1	inactive: 3.84%
O=[N+]([O-])c1cc([N+](=O)[O-])c(Nc2ccccn2)c([N+](=O)[O-])c1	inactive: 9.93%
Cc1c(NP(C)(=O)Oc2ccc(C(C)C)cc2)c(=O)n(-c2ccccc2)n1C (stereo not given)	inactive: -5.4%
COc1ccc(OP(C)(=O)Nc2ccccn2)cc1 (stereo not given)	inactive: -3.83%
CN(C)CCOC(=O)C(O)(c1ccccc1)C1CCCC1 (stereo not given)	inactive: 6.02%
COc1ccccc1OP(C)(=O)Nc1ccc(Br)cc1 (stereo not given)	inactive: 2.78%
CP(=O)(OCCOc1ccccc1)OCCOc1ccccc1	inactive: -1.01%
CP(=O)(Nc1ccc(Cl)cc1Cl)Oc1ccccc1 (stereo not given)	inactive: -0.385%
Cc1nc2ccc3ccccc3c2o1.O=[N+]([O-])c1cc([N+](=O)[O-])c(O)c([N+](=O)[O-])c1	inactive: -7.05%
